# AlphaSeq binding of Ab-14 light chain variants to a spike HR2 peptide

Data: MIT Lincoln Laboratory AlphaSeq set, Li et al. 2023, doi:10.1038/s41467-023-39022-2, as distributed in FLAb.

Antigen: PDVDLGDISGINAS, a 14-residue peptide of the SARS-CoV-2 spike HR2 region.

Each scFv is VH, a 15-residue (Gly4Ser)3 linker, VL, as in the parent Ab-14, and differs from it in the CDRs of the light chain only.
VH: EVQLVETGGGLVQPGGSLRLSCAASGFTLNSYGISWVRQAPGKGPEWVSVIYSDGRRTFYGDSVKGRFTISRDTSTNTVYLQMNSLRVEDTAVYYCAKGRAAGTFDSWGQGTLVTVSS
VL: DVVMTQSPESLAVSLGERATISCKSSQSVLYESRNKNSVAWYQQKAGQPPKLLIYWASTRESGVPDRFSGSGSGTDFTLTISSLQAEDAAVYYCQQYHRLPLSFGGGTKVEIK

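Phage display of a naive human antibody library on the peptide gave the parent. Designed CDR sequences, proposed from the first random library and measured here. Their group label is 14L_GP_HC (GP: Gaussian process model; HC: hill climbing; a sequence that several methods proposed may carry one label only). The scFvs were displayed on barcoded MATa yeast, the peptide on MATalpha yeast. The frequency of each diploid, read from paired DNA barcodes, reflects how well the two displayed proteins bind. The ratio of observed to expected reads was calibrated, replicate by replicate, on BCL2-family standards whose Kd was known from biolayer interferometry. There are six technical replicates.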

The parent's light chain CDRs are KSSQSVLYESRNKNSVA, WASTRES, QQYHRLPLS; each variant's own CDRs replace them letter for letter.
Scale: log10 of Kd in nM, estimated from mating counts; low values are strong binders.
The mean shown is taken over the replicates in which the pair was detected.
The authors' rule: three or more of the six replicates give a measured affinity, fewer mean a poor binder.
The parent sequence was in this pool as ten entries: three were never detected, three once, and four in most replicates, with averages from 0.34 to 2.37.
The range of this assay differs from that of the first round, and the authors advise against merging the two.
Empty control strains, which show no peptide, gave a signal in 4% of pairings with all light chain designs; the median was 2.64 and 95% of these signals were weaker than 1.59. No background was subtracted. The control count says in how many pairings with the empty strains this scFv gave a signal, with their mean in brackets.

| CDR-L1 | CDR-L2 | CDR-L3 | log10 Kd (nM) by replicate | mean log10 Kd (nM) | empty controls |
|---|---|---|---|---|---|
| KISQGVLYESRNKNSVA | GASTRCS | QQYHRLPLS | 0.08 / -0.17 / -0.28 / 0.03 / -0.36 / 0.12 | -0.10 | 0/18 |
| KSSQSVLMESRNSNSVA | DASTRES | QQYHRLPLS | 0.22 / 0.05 / -0.08 / 0.03 / 0.39 / -0.11 | 0.08 | 0/18 |
| DYSQSWLYESRNKNSVA | GASTRES | QQYHRLPLS | -0.01 / -0.03 / -0.03 / -0.51 / -0.17 / 0.18 | -0.09 | 3/18 (2.59) |
| KVGQGVLYESRNWNSVA | GASTRES | QQYHRLPLS | 0.30 / 0.20 / -0.01 / 0.10 / 0.17 / 0.14 | 0.15 | 1/18 (1.94) |
| KSSGSWLYESRNKNSVA | GASAREV | QQYHRLPLS | 1.14 / 0.74 / 1.37 / 1.07 / 0.84 / 0.66 | 0.97 | 2/18 (3.32) |
| KSSISYLYESSNKNSVA | AASTRES | QQYHRLPLS | 0.56 / 0.83 / 0.42 / 0.40 / 0.56 / 0.53 | 0.55 | 1/18 (2.03) |
| KFEQGVLYESRNKNSVA | GASVRES | QQYHRLPLS | 0.56 / 0.56 / 0.01 / -0.07 / -0.14 / 0.19 | 0.18 | 0/18 |
| KLLQSVLYESRNKNSVA | HASTRED | QLYHRLPLS | 1.95 / 1.30 / 1.15 / 1.10 / 1.11 / 1.37 | 1.33 | 2/18 (2.40) |
| KQSQSVLYESRNKNSVA | EASTRSS | QQYHRLPLS | 0.43 / 0.20 / 0.00 / 0.55 / -0.06 / 0.57 | 0.28 | 1/18 (1.95) |
| KSSISYLEESRNKNSVA | EASTREK | QQYHRLPLS | 0.15 / 0.12 / 0.02 / -0.04 / -0.04 / 0.20 | 0.07 | 4/18 (3.44) |
| KFSDSVLLESRVKNSVA | NASTRES | QQYHRLPLS | -0.02 / -0.15 / 0.01 / -0.52 / -0.09 / -0.18 | -0.16 | 1/18 (2.01) |
| KLPGSTLYESRNKNSVA | NASTRES | QQYHRLPLS | -0.19 / -0.03 / -0.14 / -0.23 / -0.26 / -0.06 | -0.15 | 1/18 (2.51) |
| KLSQSQLYDSQNKNSVA | WASTRES | QQYHRLPLS | 0.85 / 1.15 / 0.78 / 0.49 / 1.42 / 1.32 | 1.00 | 0/18 |
| KFSQSVLYESRTKNSVA | NANTRET | QQYHRLPLS | -0.16 / -0.27 / -0.47 / -0.61 / -0.53 / -0.35 | -0.40 | 2/18 (1.87) |
| KSSQSYHYESRNKNSVA | DASTRES | QQYHRLPLS | 0.29 / 0.34 / 0.13 / 0.05 / 0.24 / 0.31 | 0.23 | 0/18 |
| SVSPSTLYESRNKNSVA | NASTRES | QQYHRLPLS | -0.22 / -0.40 / -0.47 / -0.44 / -0.46 / -0.27 | -0.38 | 0/18 |
| HSSGSVLYESRNGNSVA | NASTRES | QQYHRLPLS | 0.94 / 1.19 / 0.94 / 1.06 / 0.94 / 1.12 | 1.03 | 1/18 (2.13) |
| KFSQSWLYEDRVKNSVA | GASTRES | QQYHRLPLS | -0.36 / -0.42 / -0.25 / -0.58 / -0.33 / -0.10 | -0.34 | 3/18 (2.94) |
| HQSSSVLYESRNKNSVA | NGSTREV | QQYHRLPLS | -0.05 / -0.17 / -0.13 / -0.53 / -0.26 / -0.18 | -0.22 | 2/18 (2.71) |
| KVEQSVEYESRNKNSVA | NASTRES | QQYHRLPLS | -0.03 / 0.15 / -0.26 / -0.13 / -0.09 / 0.27 | -0.01 | 0/18 |
| SFSQSVLYESRNKNSVA | NASTRES | QQYHRLPLS | 0.00 / -0.01 / -0.15 / -0.08 / -0.26 / -0.17 | -0.11 | 0/18 |
| KVLQSVVYEGRNKNSVA | HASTREQ | QQYHRLPLS | 0.39 / 0.21 / 0.17 / -0.11 / 0.09 / 0.49 | 0.21 | 1/18 (2.72) |
| KLPQSTLYESRNKNSVA | QASTRES | QQYHRLPLT | 0.05 / -0.20 / -0.16 / -0.38 / -0.26 / -0.05 | -0.17 | 0/18 |
| KSSISVLYESENKNSVA | DASQRES | QQYHRLPLS | 0.43 / 0.31 / 0.33 / 0.17 / 0.25 / 0.53 | 0.34 | 3/18 (2.80) |
| KVSWSVLYESNNKNSVA | HASTRED | QQYHRLPLS | 0.62 / 0.39 / 0.83 / 0.31 / 0.36 / 0.93 | 0.57 | 0/18 |
| KFSQSVLYESRTQNGVA | NASTRES | QQYHRLPLS | -0.18 / -0.04 / -0.20 / -0.29 / -0.44 / -0.30 | -0.24 | 2/18 (2.43) |
| KLSQSVLYESHNKNSVA | NASTRMS | QQYHRLPLS | -0.08 / -0.25 / -0.15 / -0.32 / -0.40 / -0.15 | -0.22 | 4/18 (2.66) |
| KSSMSVLFESRNKNSVA | NASTRES | QQYHRLPLS | 0.94 / 1.15 / 0.57 / 0.54 / 0.45 / 1.04 | 0.78 | 0/18 |
| KFSQSVEYESRTKNSVA | NASTRES | QQYHRLPLS | 0.04 / 0.19 / -0.19 / 0.02 / 0.08 / 0.02 | 0.03 | 0/18 |
| KSSISGLYESRNKNSVA | EASTRES | QQYHRLPLS | -0.09 / -0.16 / -0.21 / -0.21 / -0.04 / 0.02 | -0.12 | 2/18 (3.43) |
| KSLQSWLYESRNKNSVA | HASTREQ | QQYHRLPLS | 0.47 / 0.55 / 0.69 / 0.58 / 0.56 / 0.32 | 0.53 | 0/18 |
| KSSQGVLYESRNKNSVA | GASQRWS | QQYHRLPLS | 0.85 / 0.72 / 1.06 / 0.92 / 0.95 / 1.06 | 0.93 | 2/18 (4.05) |
| HLSWVVLYESRNKNSVA | NASTRES | QQYHRLPLS | 0.23 / 0.11 / -0.16 / 0.08 / -0.04 / 0.03 | 0.04 | 1/18 (3.39) |
| KQSQSVDYEWRNKNSVA | DASTRES | QQYHRLPLS | -0.05 / -0.11 / -0.06 / -0.09 / -0.09 / 0.20 | -0.04 | 1/18 (2.65) |
| KLQQSVLYESRNKNNVA | HASTRED | QQYARLPLS | 0.06 / -0.29 / -0.32 / -0.58 / -0.42 / -0.21 | -0.29 | 0/18 |
| KLRQQTLYESRNKNSVA | SASTREE | QQYHRLPLS | 0.36 / 0.13 / 0.27 / 0.11 / 0.11 / 0.46 | 0.24 | 1/18 (1.71) |
| KSSISHLEESRNKNSVA | EASTRES | QQYHRLPLS | 0.07 / -0.33 / -0.18 / -0.18 / -0.54 / 0.12 | -0.17 | 0/18 |
| KMSQSWLMESRNKNSVA | EASTRQS | QQYHRLPLS | -0.22 / -0.34 / -0.33 / -0.28 / -0.39 / 0.02 | -0.26 | 2/18 (2.46) |
| KTGQGVLYESRNKNSVA | GASMRES | QQYHRLPLS | 0.23 / 0.33 / 0.12 / -0.01 / 0.34 / 0.28 | 0.22 | 2/18 (3.52) |
| KLLQSVDYESRNKNSVA | HASTRED | QQYHRLPLS | 0.23 / 0.18 / 0.38 / 0.10 / 0.11 / 0.24 | 0.21 | 1/18 (2.83) |
| KFSQSVLYEDRTSNSVA | NASTRES | QQYHRLPLS | -0.02 / 0.21 / -0.46 / -0.24 / -0.06 / 0.07 | -0.08 | 0/18 |
| KSSISYLYESRNVNSVA | EASTREQ | QQYHRLPLS | 0.46 / 0.26 / 0.18 / 0.13 / 0.36 / 0.34 | 0.29 | 2/18 (2.42) |
| ISSQSVLPESRNKNSVA | DASTRES | QQYHRLPLS | 0.87 / 0.25 / 0.53 / 0.46 / 1.31 / 0.49 | 0.65 | 0/18 |
| KSLWSVLYESNNKNSVA | QASTRED | QQYHRLPLS | 0.54 / 0.71 / 1.02 / 1.29 / 0.38 / 0.79 | 0.79 | 1/18 (2.34) |
| KLDQSTLYESRNPNSVA | WASTRES | QQYHRLPLS | 0.71 / 0.00 / 0.56 / -0.16 / -0.21 / 0.35 | 0.21 | 1/18 (1.48) |